Data as given in patent US20150025077A1, “GGA AND GGA DERIVATIVES COMPOSITIONS THEREOF AND METHODS FOR TREATING NEURODEGENERATIVE DISEASES INCLUDING PARALYSIS INCLUDING THEM” (COYOTE PHARMACEUTICALS, INC., priority 2012, published 2015).

What was measured:
Sod1 mutant mice = assay type: in vivo; conditions: CNS-102 12 mg/kg or Riluzole 8 mg/kg daily oral, vs vehicle
Description: Values represent means±SEMs.
Subjects were weighed and tested for Grip Strength, and assigned Clinical and Neurological scores three times a week beginning at P90 and five times a week beginning at P100. The table below summarizes the experimental design of the study.
The grip strength test assesses motor function and control of the fore- and hindpaws. Mice were allowed to grab the bars on the Chatillon DFIS-10 digital force gauge (Largo, Fla.), while being gently pulled parallel away from the bars by the tail. The maximum force measured prior to release of the subject's paw from the bar was recorded.
Animals were scored using the scoring system tabulated below.

[1] = Blood tests (chemistry, hematology) in Sod1 mutant and wild type mice

What does the source list for `Nc1nc2ccc(OC(F)(F)F)cc2s1` [Riluzole, reference compound]?
clinical and neuroscore testing (Sod1 mutant mice): tended to outperform group D; ALBUMIN ([1]; CNS-102 12 mg/kg or Riluzole 8 mg/kg daily oral (Example 26 table)): 2.7 mg/dL; ALBUMIN ([1]; CNS-102 12 mg/kg or Riluzole 8 mg/kg daily oral, P100): 2700 mg/dL
